The assay addresses T1, Histone H3(1–15)K9bhb peptide (R/S racemic mixture) (UniProt P68431 2-16, β-hydroxybutyryl-lysine (Kbhb) at K9).
T1 construct: histone H3 N-terminal tail, residues 1-15; also called H3K9bhb; Kbhb; source: synthetic peptide (Beijing SciLight Biotechnology, >95% purity)
Kind of assay: ITC; 25 °C, MicroCal PEAQ-ITC; 200 μL of 50 μM protein in the cell titrated with 17 injections of 750 μM peptide; in the absence of NAD+; one set of binding sites model. As to conditions: both partners purified.

B1: SIRT3(118–399) V324M (domain or fragment, human, UniProt Q9NTG7 118-399, looked up)
chain: SDKGKLSLQDVAELIRARACQRVVVMVGAGISTPSGIPDFRSPGSGLYSNLQQYDLPYPEAIFELPFFFHNPKPFFTLAKELYPGNYKPNVTHYFLRLLHDKGLLLRLYTQNIDGLERVSGIPASKLVEAHGTFASATCTVCQRPFPGEDIRADVMADRVPRCPVCTGVVKPDIVFFGEPLPQRFLLHVVDFPMADLLLILGTSLEMEPFASLTEAVRSSVPRLLINRDLVGPLAWHPRSRDVAQLGDVVHGVESLVELLGWTEEMRDLVQRETGKLDGPDK
notes: also called SIRT3_(V324M); V324M mutant; not shown: 10xHIS-SUMO, N-terminal, cleaved
In the case of B1, the Kd – broadly, the free concentration of one partner at which half of the binding sites on the other are occupied at equilibrium, for simple one-to-one binding – is 664 µM.

For the origin of these results see PMC6796883 (Cell Discovery, 2019).
